Measurements reported in patent US20250320214A1, “ORGANIC COMPOUNDS” (INTRA-CELLULAR THERAPIES, INC., priority 2022, published 2025).
Read-outs that look alike come from different tables or passages of the source.

Key:
5-HT2A = 5-HT2A (Homo sapiens, UniProt P28223); experiment: Receptor binding, 5-HT2A; settings: for inhibition at 0.1 µM: read-out: 5-HT2A maximum inhibition; for 5-HT2A maximum inhibition: 0.1 µM
D2 = D2 (Homo sapiens, UniProt P14416); experiment: Receptor binding, D2
SERT = SERT (Homo sapiens, UniProt P31645); experiment: Receptor binding, SERT; settings: for inhibition at 0.1 µM: at 100 nM
D1 = D1 (Homo sapiens, UniProt P21728); experiment: Receptor binding, D1; settings: for inhibition at 0.1 µM: read-out: D1 maximum inhibition
Mu opioid receptor = Mu opioid receptor (Homo sapiens, UniProt P35372); experiment: Receptor binding, Mu opioid receptor; settings: for inhibition at 0.1 µM: at 100 nM, read-out: Mu maximum inhibition
[1] = at 100 nM, read-out: D2 maximum inhibition
[2] = read-out: SERT maximum inhibition
[3] = at 200 nM, read-out: SERT maximum inhibition
[4] = read-out: D2 maximum inhibition
[5] = (footnote c), read-out: SERT maximum inhibition

In the case of `CCCCN1CC[C@H]2[C@@H](C1)c1cccc3c1N2CC(=O)N3` [Ex. 1, (6bR,10aS)-8-butyl-6b,7,8,9,10,10a-hexahydro-1H-pyrido[3′,4′:4,5]pyrrolo[1,2,3-de]quinoxalin-2(3H)-one], the inhibition at 0.1 µM (5-HT2A) is reported as < 0%, the inhibition at 0.1 µM (D2; [1]) is reported as 15% and the inhibition at 0.2 µM (SERT; [2]) is reported as < 0%.

For `O=C1CN2c3c(cccc3[C@@H]3CN(CCCO)CC[C@@H]32)N1` [Ex. 2, (6bR,10aS)-8-(3-hydroxypropyl)-6b,7,8,9,10,10a-hexahydro-1H-pyrido[3′,4′:4,5]pyrrolo[1,2,3-de]quinoxalin-2(3H)-one], the inhibition at 0.1 µM (5-HT2A) was 8% and the inhibition at 0.2 µM (SERT; [3]) was < 0%.

Molecule `O=C1CN2c3c(cccc3[C@@H]3CN(CCCOc4ccccc4)CC[C@@H]32)N1` [Ex. 3, (6bR,10aS)-8-(3-phenoxypropyl)-6b,7,8,9,10,10a-hexahydro-1H-pyrido[3′,4′:4,5]-pyrrolo[1,2,3-de]quinoxalin-2(3H)-one] has a Ki (5-HT2A) of 2.84 nM, an inhibition at 0.1 µM (D2; [4]) of 34% and an inhibition at 50 µM (SERT; at 50 μM (footnote a), read-out: SERT maximum inhibition) of 8%. It also gave an inhibition at 0.1 µM (D1) of 24%.

In the case of `O=C1CN2c3c(cccc3[C@@H]3CN(CCCC(=O)c4ccc(Cl)s4)CC[C@@H]32)N1` [Ex. 4, (6bR,10aS)-8-(4-(5-chlorothiophen-2-yl)-4-oxobutyl)-6b,7,8,9,10,10a-hexahydro-1H-pyrido[3′,4′:4,5]-pyrrolo[1,2,3-de]quinoxalin-2(3H)-one], the Ki (5-HT2A) is reported as 18.3 nM, the Ki (Mu opioid receptor) is reported as 8.15 nM and the inhibition at 0.1 µM (D2; [1]) is reported as 41%. It also gave a Ki (SERT) of 66 nM and an inhibition at 0.1 µM (D1; at 100 nM) of 34%.

`O=C1CN2c3c(cccc3[C@@H]3CN(CCCOc4ccc(O)cc4)CC[C@@H]32)N1` [Ex. 6, (6bR,10aS)-8-(3-(4-hydroxyphenoxy)propyl)-6b,7,8,9,10,10a-hexahydro-1H-pyrido[3′,4′:4,5]pyrrolo[1,2,3-de]quinoxalin-2(3H)-one] was tested, and the inhibition at 0.1 µM (5-HT2A) was 77%, the inhibition at 0.1 µM (D2; [4]) was 41% and the inhibition at 0.2 µM (SERT; [3]) was 11%. For the same molecule, the inhibition at 0.1 µM (D1; at 100 nM) was 0.86%.

For `O=C1CN2c3c(cccc3[C@@H]3CN(CCCOc4ccc(OCc5ccccc5)cc4)CC[C@@H]32)N1` [Ex. 7, (6bR,10aS)-8-(3-(4-(benzyloxy)phenoxy)propyl)-6b,7,8,9,10,10a-hexahydro-1H-pyrido[3′,4′:4,5]-pyrrolo[1,2,3-de]quinoxalin-2(3H)-one], the inhibition at 0.1 µM (5-HT2A) was 76%, the inhibition at 0.1 µM (D2; [4]) was 23% and the inhibition at 0.2 µM (SERT; [3]) was 68%. It also gave an inhibition at 0.1 µM (D1) of 4.6%.

For `NC(=O)c1cc(F)ccc1OCCCN1CC[C@H]2[C@@H](C1)c1cccc3c1N2CC(=O)N3` [Ex. 8, 5-fluoro-2-(3-((6bR,10aS)-2-oxo-2,3,6b,9,10,10a-hexahydro-1H-pyrido[3′,4′:4,5]pyrrolo[1,2,3-de]quinoxalin-8(7H)-yl)propoxy)benzamide], the inhibition at 0.1 µM (5-HT2A) was 14%, the inhibition at 100 µM (D2; at 100 μM (footnote b), read-out: D2 maximum inhibition) was < 0% and the inhibition at 0.2 µM (SERT; [3]) was 9.6%. The inhibition at 0.1 µM (D1; at 100 nM) was 0.78%.

Molecule `O=C1CN2c3c(cccc3[C@@H]3CN(CCCOc4ccc(F)c(F)c4)CC[C@@H]32)N1` [Ex. 9, (6bR,10aS)-8-(3-(3,4-difluorophenoxy)propyl)-6b,7,8,9,10,10a-hexahydro-1H-pyrido[3′,4′:4,5]pyrrolo-[1,2,3-de]quinoxalin-2(3H)-one] has a Ki (5-HT2A) of 16.1 nM, a Ki (Mu opioid receptor) of 1.83 nM and an inhibition at 0.1 µM (D2; [4]) of 7%. The inhibition at 0.2 µM (SERT; [5]) was 15% and the inhibition at 0.1 µM (D1) was 15%.

With `Cc1cc(F)cc(C)c1OCCCN1CC[C@H]2[C@@H](C1)c1cccc3c1N2CC(=O)N3` [Ex. 11, (6bR,10aS)-8-(3-(4-fluoro-2,6-dimethylphenoxy)propyl)-6b,7,8,9,10,10a-hexahydro-1H-pyrido[3′,4′:4,5]-pyrrolo[1,2,3-de]quinoxalin-2(3H)-one] the inhibition at 0.1 µM (5-HT2A) was 40%, the inhibition at 0.1 µM (D2; [1]) was < 0% and the inhibition at 0.2 µM (SERT; [5]) was 34%. For the same molecule, the inhibition at 0.1 µM (D1; at 100 nM) was < 0%.

`O=C1Nc2cccc3c2N([C@H]2CCN(CCCOc4ccc(F)cc4)C[C@@H]32)C1(F)F` [Ex. 13, (6bR,10aS)-1,1-difluoro-8-(3-(4-fluorophenoxy)propyl)-6b,7,8,9,10,10a-hexahydro-1H-pyrido[3′,4′:4,5]pyrrolo[1,2,3-de]quinoxalin-2(3H)-one] was tested, and the inhibition at 0.1 µM (5-HT2A; at 100 nM) was 21%, the inhibition at 0.1 µM (Mu opioid receptor) was < 0% and the inhibition at 0.1 µM (D2; [1]) was 7%. The inhibition at 0.2 µM (SERT; [3]) was 6% and the inhibition at 0.1 µM (D1; at 100 nM) was 24%.

`CC(=O)Nc1cccc2c1N[C@H]1CCN(CCCOc3ccc(F)cc3)C[C@@H]21` [Ex. 14, N-((4aS,9bR)-2-(3-(4-fluorophenoxy)propyl)-2,3,4,4a,5,9b-hexahydro-1H-pyrido[4,3-b]indol-6-yl)acetamide] was tested, and the inhibition at 0.1 µM (5-HT2A; at 100 nM) was 67%, the inhibition at 0.1 µM (Mu opioid receptor) was 9% and the inhibition at 0.1 µM (D2; [1]) was 11%. The inhibition at 0.2 µM (SERT; [3]) was 4% and the inhibition at 0.1 µM (D1; at 100 nM) was 25%.

In the case of `CC(=O)Nc1cccc2c1N[C@H]1CCN(CCCC(=O)c3ccc(F)cc3)C[C@@H]21` [Ex. 15, N-((4aS,9bR)-2-(4-(4-fluorophenyl)-4-oxobutyl)-2,3,4,4a,5,9b-hexahydro-1H-pyrido[4,3-b]indol-6-yl)acetamide], the inhibition at 0.1 µM (5-HT2A; at 100 nM) is reported as 80%, the inhibition at 0.1 µM (Mu opioid receptor) is reported as 11% and the inhibition at 0.1 µM (D2; [1]) is reported as 49%. For the same molecule, the inhibition at 0.2 µM (SERT; [3]) was < 0% and the inhibition at 0.1 µM (D1; at 100 nM) was 45%.

With `CC(=O)Nc1cccc2c1N[C@H]1CCN(CCCC(O)c3ccc(F)cc3)C[C@@H]21` (stereo partly drawn) [Ex. 16, N-((4aS,9bR)-2-(4-(4-fluorophenyl)-4-hydroxybutyl)-2,3,4,4a,5,9b-hexahydro-1H-pyrido[4,3-b]indol-6-yl)acetamide] the inhibition at 0.1 µM (5-HT2A; at 100 nM) was < 0%, the inhibition at 0.1 µM (Mu opioid receptor) was < 0% and the inhibition at 0.1 µM (D2; [1]) was < 0%. For the same molecule, the inhibition at 0.2 µM (SERT; [3]) was < 0% and the inhibition at 0.1 µM (D1; at 100 nM) was < 0%.

In the case of `Cc1cc(F)ccc1OCCCN1CC[C@H]2[C@@H](C1)c1cccc3c1N2CC(=O)N3` [Ex. 18], the Ki (5-HT2A) is reported as 0.4 nM, the Ki (Mu opioid receptor) is reported as 2.9 nM and the inhibition at 0.1 µM (D2; [1]) is reported as 69%. The inhibition at 0.2 µM (SERT; [3]) was 32% and the inhibition at 0.1 µM (D1; at 100 nM) was 40%.

Molecule `O=C1CN2c3c(cccc3[C@@H]3CN(CCCOc4ccc(F)cc4Cl)CC[C@@H]32)N1` [Ex. 19] has a Ki (5-HT2A) of 0.6 nM, a Ki (Mu opioid receptor) of 3 nM and an inhibition at 0.1 µM (D2; [1]) of 80%. For the same molecule, the inhibition at 0.2 µM (SERT; [3]) was 23% and the inhibition at 0.1 µM (D1; at 100 nM) was 33%.

With `CCc1cc(F)ccc1OCCCN1CC[C@H]2[C@@H](C1)c1cccc3c1N2CC(=O)N3` [Ex. 20] the Ki (5-HT2A) was 0.3 nM, the Ki (Mu opioid receptor) was 5.4 nM and the inhibition at 0.1 µM (D2; [1]) was 69%. For the same molecule, the inhibition at 0.2 µM (SERT; [3]) was 26% and the inhibition at 0.1 µM (D1; at 100 nM) was 66%.

Molecule `Cc1cc(OCCCN2CC[C@H]3[C@@H](C2)c2cccc4c2N3CC(=O)N4)ccc1F` [Ex. 21] has a 5-HT2A maximum inhibition (5-HT2A) of 77%, a Ki (Mu opioid receptor) of 69 nM and an inhibition at 0.1 µM (D2; [1]) of 0%. For the same molecule, the inhibition at 0.1 µM (SERT; [2]) was 14% and the inhibition at 0.1 µM (D1; at 100 nM) was < 1%.

`O=C1CN2c3c(cccc3[C@@H]3CN(CCCOc4ccc(F)c(Cl)c4)CC[C@@H]32)N1` [Ex. 22] gave a 5-HT2A maximum inhibition (5-HT2A) of 65%, a Ki (Mu opioid receptor) of 74 nM and an inhibition at 0.1 µM (D2; [1]) of 0%. It also gave an inhibition at 0.1 µM (SERT; [2]) of 6% and an inhibition at 0.1 µM (D1; at 100 nM) of 0%.

Work on `N#Cc1cc(OCCCN2CC[C@H]3[C@@H](C2)c2cccc4c2N3CC(=O)N4)ccc1F` [Ex. 23] yielded a 5-HT2A maximum inhibition (5-HT2A) of 35%, a Ki (Mu opioid receptor) of 65 nM and an inhibition at 0.1 µM (D2; [1]) of 0%. For the same molecule, the inhibition at 0.1 µM (SERT; [2]) was 13% and the inhibition at 0.1 µM (D1; at 100 nM) was 0%.

For `N#Cc1cc(F)ccc1OCCCN1CC[C@H]2[C@@H](C1)c1cccc3c1N2CC(=O)N3` [Ex. 25], the Ki (5-HT2A) was 3.8 nM, the Ki (Mu opioid receptor) was 8.4 nM and the Ki (D2) was 43 nM. For the same molecule, the Ki (SERT) was 35 nM and the Ki (D1) was 74 nM.

With `CN1C(=O)CN2c3c(cccc31)[C@@H]1CN(CCCOc3ccc(F)cc3C#N)CC[C@@H]12` [Ex. 26] the inhibition at 0.1 µM (5-HT2A; at 100 nM) was 91%, the Mu maximum inhibition (Mu opioid receptor; concentration not printed in this table (row head: Mu (Ki, nM))) was 5% and the inhibition at 0.1 µM (D2; [1]) was 14%. The inhibition at 0.2 µM (SERT; [3]) was 93% and the inhibition at 0.1 µM (D1; at 100 nM) was 93%.

`O=C1CN2c3c(cccc3[C@@H]3CN(CCCOc4ccc(F)cc4)CC[C@@H]32)N1` [Fm. A, (6bR,10aS)-8-(3-(4-fluorophenoxy)propyl)-6b,7,8,9,10,10a-hexahydro-1H-pyrido[3′,4′:4,5]pyrrolo[1,2,3-de]quinoxalin-2(3H)-one, reference compound] showed an inhibition at 0.1 µM (D1) of 44%.

For `O=C1CN2c3c(cccc3[C@@H]3CN(CCCS(=O)(=O)c4ccc(F)cc4)CC[C@@H]32)N1` [compound 12, (6bR,10aS)-8-(3-((4-fluorophenyl)sulfonyl)propyl)-6b,7,8,9,10,10a-hexahydro-1H-pyrido[3′,4′:4,5]pyrrolo-[1,2,3-de]quinoxalin-2(3H)-one], the inhibition at 0.1 µM (5-HT2A) was 33%, the inhibition at 0.1 µM (Mu opioid receptor) was < 0% and the inhibition at 0.2 µM (SERT; [3]) was < 0%.
